In PubChem BioAssay AID434950 (Johns Hopkins Ion Channel Center, 2010):
Only a part is listed here, and it is no random draw. Activity calls are given as the source filed them.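 How the source made its calls: active means membrane potential signal rise above negative control mean plus 3 SD in both duplicates, also active in the earlier TRPC4 screen; inactive means the rest.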

Chains of the proteins cited; added tags and fusions are not shown. Lines headed by an entry give the natural chain unless they say otherwise; changes in a name come on top.
UniProt Q61143: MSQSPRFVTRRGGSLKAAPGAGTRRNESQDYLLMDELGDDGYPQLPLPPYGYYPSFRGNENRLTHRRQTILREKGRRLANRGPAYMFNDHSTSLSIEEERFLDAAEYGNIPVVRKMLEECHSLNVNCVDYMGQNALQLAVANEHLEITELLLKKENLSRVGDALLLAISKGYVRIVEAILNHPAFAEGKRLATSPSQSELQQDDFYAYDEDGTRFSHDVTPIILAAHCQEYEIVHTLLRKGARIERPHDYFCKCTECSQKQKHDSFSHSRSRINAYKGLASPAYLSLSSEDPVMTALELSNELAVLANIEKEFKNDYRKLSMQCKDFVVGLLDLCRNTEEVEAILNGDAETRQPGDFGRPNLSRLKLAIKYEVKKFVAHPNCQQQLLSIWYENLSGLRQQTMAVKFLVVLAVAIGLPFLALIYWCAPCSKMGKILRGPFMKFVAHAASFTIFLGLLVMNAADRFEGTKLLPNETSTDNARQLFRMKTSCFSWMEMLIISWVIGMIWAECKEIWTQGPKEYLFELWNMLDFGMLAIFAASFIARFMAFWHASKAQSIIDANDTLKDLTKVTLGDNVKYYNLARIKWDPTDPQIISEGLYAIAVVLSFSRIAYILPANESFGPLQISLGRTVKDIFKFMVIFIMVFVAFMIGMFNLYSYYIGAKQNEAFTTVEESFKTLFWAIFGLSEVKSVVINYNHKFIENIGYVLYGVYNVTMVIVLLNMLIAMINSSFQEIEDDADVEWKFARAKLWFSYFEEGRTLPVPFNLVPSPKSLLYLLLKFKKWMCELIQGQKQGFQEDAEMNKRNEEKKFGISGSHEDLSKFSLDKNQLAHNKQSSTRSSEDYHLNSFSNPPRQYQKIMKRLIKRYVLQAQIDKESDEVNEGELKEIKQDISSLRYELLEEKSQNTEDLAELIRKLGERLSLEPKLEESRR

Molecular target: Short transient receptor potential channel 6 (Mus musculus) (UniProt Q61143)
Experiment: activation of mouse TRPC6 channel, confirmation, selectivity assay for TRPC4 activator project, cell-based, HEK293, membrane potential dye, duplicate (AID 434950);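 further: 0% = buffer only wells and 100% = acetylcholine maximal-effect wells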
Details: HEK293 TRPC6, membrane potential fluorescence, at 10 µM, hits give high values

SMILES	activation
CN(C)C1(CNC(=O)c2ccc(Cl)c(S(N)(=O)=O)c2)CCCCC1	inactive: 0%
